By UniProt entry, the sequences of proteins in these tests, tags left out. Where a name states a change or a piece, a line headed by the entry shows the natural chain unless it says otherwise.
UniProt Q9UF33: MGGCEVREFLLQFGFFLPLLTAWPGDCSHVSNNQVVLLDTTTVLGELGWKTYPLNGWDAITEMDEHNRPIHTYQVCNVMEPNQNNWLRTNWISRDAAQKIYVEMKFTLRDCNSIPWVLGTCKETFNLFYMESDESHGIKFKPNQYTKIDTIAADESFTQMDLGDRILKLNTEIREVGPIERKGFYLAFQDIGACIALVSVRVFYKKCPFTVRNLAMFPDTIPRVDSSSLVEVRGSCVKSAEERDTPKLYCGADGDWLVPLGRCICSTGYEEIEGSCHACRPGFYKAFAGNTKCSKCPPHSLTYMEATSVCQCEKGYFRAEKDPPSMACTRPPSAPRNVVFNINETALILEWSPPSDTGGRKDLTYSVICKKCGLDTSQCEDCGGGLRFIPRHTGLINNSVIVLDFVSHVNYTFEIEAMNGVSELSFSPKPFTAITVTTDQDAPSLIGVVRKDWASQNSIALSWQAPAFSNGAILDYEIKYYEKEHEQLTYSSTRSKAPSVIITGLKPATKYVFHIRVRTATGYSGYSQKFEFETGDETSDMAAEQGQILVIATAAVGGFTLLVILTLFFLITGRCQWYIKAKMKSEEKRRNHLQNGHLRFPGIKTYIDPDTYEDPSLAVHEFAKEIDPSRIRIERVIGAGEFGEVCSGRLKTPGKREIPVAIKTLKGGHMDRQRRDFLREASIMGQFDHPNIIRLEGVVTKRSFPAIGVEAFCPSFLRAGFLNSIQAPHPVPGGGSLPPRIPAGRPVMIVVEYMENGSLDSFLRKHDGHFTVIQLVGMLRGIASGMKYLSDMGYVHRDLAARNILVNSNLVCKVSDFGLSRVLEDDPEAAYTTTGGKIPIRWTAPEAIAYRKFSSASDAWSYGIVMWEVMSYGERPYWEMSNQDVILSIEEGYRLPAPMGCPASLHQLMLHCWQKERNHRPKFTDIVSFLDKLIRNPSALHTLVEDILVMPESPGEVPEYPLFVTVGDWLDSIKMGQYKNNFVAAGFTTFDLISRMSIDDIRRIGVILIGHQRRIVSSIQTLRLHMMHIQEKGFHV
UniProt P52333: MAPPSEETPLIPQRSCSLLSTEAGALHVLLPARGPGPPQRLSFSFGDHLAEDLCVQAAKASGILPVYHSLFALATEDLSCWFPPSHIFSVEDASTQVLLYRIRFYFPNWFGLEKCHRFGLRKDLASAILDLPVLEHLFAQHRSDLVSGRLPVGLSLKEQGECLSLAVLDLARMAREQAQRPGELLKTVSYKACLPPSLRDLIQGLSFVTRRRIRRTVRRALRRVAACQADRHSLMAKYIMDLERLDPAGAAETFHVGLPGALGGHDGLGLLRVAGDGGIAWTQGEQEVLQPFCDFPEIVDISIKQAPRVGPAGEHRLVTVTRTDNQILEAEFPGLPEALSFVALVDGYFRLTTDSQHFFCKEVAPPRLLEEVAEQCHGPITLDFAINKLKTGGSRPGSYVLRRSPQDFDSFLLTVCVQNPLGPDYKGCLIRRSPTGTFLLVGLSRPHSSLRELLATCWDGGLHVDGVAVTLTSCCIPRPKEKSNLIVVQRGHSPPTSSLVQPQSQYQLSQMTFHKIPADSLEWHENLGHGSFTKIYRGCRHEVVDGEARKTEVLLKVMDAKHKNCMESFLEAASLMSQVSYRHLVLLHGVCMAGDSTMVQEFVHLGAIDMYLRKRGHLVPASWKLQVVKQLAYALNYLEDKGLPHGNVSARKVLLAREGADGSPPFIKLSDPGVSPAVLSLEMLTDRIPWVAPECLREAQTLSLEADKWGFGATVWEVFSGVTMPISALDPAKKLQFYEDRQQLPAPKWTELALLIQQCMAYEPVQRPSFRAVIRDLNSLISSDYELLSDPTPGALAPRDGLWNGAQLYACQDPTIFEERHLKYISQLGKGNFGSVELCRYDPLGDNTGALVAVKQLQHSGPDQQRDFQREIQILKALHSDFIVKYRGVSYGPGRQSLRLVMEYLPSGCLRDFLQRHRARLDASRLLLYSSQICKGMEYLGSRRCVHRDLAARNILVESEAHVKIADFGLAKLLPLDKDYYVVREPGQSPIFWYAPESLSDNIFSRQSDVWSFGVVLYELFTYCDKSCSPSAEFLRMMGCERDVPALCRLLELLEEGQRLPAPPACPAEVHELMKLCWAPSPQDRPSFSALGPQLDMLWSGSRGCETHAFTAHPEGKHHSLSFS
UniProt P08581: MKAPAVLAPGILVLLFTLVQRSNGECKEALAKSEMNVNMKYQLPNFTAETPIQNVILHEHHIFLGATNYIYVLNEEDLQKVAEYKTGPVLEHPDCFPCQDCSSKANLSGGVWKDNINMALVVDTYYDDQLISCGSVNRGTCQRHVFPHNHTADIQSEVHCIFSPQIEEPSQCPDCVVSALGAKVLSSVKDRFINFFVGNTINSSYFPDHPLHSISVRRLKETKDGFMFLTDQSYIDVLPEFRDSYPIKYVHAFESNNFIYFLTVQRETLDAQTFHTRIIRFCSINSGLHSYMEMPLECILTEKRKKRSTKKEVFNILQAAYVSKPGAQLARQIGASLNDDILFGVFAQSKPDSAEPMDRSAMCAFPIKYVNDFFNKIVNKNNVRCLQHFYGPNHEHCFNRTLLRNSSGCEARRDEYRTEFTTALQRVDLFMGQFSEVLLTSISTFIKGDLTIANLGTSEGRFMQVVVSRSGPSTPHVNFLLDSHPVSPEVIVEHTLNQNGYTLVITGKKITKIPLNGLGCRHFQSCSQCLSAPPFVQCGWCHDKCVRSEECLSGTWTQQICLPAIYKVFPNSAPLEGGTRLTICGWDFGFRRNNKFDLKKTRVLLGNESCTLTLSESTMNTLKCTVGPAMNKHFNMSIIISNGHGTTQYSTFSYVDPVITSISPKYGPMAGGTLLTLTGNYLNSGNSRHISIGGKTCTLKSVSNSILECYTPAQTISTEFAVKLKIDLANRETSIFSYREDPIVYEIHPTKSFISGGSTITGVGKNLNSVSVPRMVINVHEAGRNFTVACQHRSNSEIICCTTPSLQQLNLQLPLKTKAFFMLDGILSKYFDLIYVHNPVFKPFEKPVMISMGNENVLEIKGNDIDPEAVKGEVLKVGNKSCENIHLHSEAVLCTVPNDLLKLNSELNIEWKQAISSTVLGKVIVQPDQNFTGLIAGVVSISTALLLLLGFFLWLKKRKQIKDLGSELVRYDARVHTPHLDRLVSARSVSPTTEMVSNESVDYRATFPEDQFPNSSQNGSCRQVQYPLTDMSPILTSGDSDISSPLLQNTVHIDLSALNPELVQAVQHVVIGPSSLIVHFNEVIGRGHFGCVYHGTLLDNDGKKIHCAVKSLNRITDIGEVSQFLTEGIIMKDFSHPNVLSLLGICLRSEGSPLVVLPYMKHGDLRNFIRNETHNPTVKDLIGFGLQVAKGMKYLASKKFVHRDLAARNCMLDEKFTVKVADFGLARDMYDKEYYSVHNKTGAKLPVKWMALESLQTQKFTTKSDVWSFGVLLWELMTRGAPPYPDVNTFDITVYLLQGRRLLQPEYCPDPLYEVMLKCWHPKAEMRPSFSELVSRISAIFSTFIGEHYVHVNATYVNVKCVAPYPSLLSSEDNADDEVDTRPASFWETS
UniProt P07947, whole entry, looked up: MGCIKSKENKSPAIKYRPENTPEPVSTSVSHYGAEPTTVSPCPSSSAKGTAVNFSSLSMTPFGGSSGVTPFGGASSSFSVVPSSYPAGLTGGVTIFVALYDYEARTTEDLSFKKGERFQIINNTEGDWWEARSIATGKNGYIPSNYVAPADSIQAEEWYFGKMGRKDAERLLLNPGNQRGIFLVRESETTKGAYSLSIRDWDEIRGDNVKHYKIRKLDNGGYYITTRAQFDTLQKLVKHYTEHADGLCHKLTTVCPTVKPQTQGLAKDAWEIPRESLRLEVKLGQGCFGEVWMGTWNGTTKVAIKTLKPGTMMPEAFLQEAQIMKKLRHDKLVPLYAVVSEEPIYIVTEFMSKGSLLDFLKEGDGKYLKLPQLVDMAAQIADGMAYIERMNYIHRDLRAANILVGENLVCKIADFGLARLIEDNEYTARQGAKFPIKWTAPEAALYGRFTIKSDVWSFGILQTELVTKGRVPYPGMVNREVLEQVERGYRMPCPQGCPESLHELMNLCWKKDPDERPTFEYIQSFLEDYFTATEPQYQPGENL

In the kinase profiling compilation of Christmann-Franck et al. (2016):

What was measured:
Experiment in all cases: Caliper, Mobility shift assay off-chip
EPHA6 (human) = EPHA6 (human) (UniProt Q9UF33); conditions: compound 0.001 µM
JAK3 JH1 JH2 (human) = JAK3 JH1 JH2 (human) (UniProt P52333); conditions: compound 0.02 µM
MET (human) = MET (human) (UniProt P08581); conditions: compound 0.02 µM
YES1 (human) = YES1 (human) (UniProt P07947); conditions: compound 0.02 µM

Work on `CNC(=O)c1ccccc1Sc1ccc2c(/C=C/c3ccccn3)n[nH]c2c1` yielded an inhibition (EPHA6 (human)) of -5.1%, an inhibition (JAK3 JH1 JH2 (human)) of 7.5% and an inhibition (MET (human)) of -3.6%. The inhibition (YES1 (human)) was 9.1%.
